Measured values taken from patent publication US20170369807A1, “Ionic Liquid, Lubricant, and Magnetic Recording Medium” (Dexerials Corporation, priority 2016, published 2017).

Experiment: Solubility test to solvents (visual observation)
Settings: ultrasonic waves 5 minutes, left 1 day, visually observed; for Solubility Fluorine-based solvent: Vertrel XF [CF3(CHF)2CF2CF3]; for Solubility Fluorine-based solvent / Solubility n-Hexane: 25° C.
[1] = listed as Comparative Example 6A

Substance	Solubility Fluorine-based solvent	Solubility n-Hexane	further results
bis(nonafluorobutanesulfonyl)imide-N,N-dimethyl-dodecyl ammonium [Ex. 2A]			Solubility Fluorine-based solvent (listed as Example 2A): ≥ 0.2 % by mass; Solubility Ethanol (listed as Example 2A): ≥ 0.5 % by mass; Solubility n-Hexane (listed as Example 2A): ≥ 0.5 % by mass
nonafluorobutanesulfonic acid-N-methyloctadecyl ammonium [Comp. Ex. 4A]	less than 0.2% by % by mass	less than 0.5% by % by mass	
nonafluorobutanesulfonic acid-octadecyl ammonium [Comp. Ex. 1A]	less than 0.2% by % by mass	less than 0.5% by % by mass	
nonafluorobutanesulfonic acid-trimethyloctadecyl ammonium [Comp. Ex. 5A]	less than 0.2% by % by mass	less than 0.5% by % by mass	
pentadecafluorooctanoic acid octadecyl ammonium [Comp. Ex. 6A]	less than 0.2% by % by mass		Solubility Fluorine-based solvent [1]: less than 0.2 % by mass; Solubility Ethanol [1]: ≥ 0.5 % by mass; Solubility n-Hexane [1]: ≥ 0.5 % by mass
